{
  "source": "ChEMBL document CHEMBL1141384",
  "about": "“Discovery of a potent, selective, and orally active human epidermal growth factor receptor-2 sheddase inhibitor for the treatment of cancer” (J Med Chem, 2007)",
  "molecular_target": "T1, Disintegrin and metalloproteinase domain-containing protein 10 (Homo sapiens, UniProt O14672)",
  "T1 sequence (O14672 whole entry)": "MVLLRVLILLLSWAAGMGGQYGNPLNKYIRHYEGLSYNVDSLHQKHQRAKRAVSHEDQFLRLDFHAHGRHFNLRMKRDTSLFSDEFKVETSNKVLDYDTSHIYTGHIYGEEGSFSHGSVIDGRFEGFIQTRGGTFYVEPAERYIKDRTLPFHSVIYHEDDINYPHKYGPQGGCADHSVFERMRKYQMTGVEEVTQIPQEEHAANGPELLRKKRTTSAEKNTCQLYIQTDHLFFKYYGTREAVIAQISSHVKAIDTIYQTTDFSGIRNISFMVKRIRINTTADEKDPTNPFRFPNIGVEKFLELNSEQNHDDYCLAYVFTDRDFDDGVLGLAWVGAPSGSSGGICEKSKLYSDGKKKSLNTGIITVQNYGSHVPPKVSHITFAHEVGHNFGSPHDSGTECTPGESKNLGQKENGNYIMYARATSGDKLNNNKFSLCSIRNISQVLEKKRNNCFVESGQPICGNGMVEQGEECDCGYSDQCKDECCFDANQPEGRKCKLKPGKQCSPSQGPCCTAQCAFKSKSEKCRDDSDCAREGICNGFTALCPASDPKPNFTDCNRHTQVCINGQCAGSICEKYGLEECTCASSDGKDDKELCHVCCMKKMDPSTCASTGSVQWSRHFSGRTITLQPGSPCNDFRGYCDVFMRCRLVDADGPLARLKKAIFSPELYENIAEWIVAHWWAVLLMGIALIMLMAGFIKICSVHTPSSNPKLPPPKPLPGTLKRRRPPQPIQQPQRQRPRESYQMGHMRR",
  "assay": "Inhibition of ADAM10",
  "data": [
    {"smiles": "O=C(NO)[C@H]1CC2(CC2)CN[C@@H]1C(=O)N1CC=C(c2ccccc2)CC1", "values": [
      {"measurement": "IC50", "result": 33, "unit": "nM"}
    ]}
  ]
}
